UUG fidelity = modulators of yeast start codon fidelity, primary screen, whole organism, S. cerevisiae, single point, plate reader; S. cerevisiae UUG-firefly luciferase reporter, luminescence/redox ratio; activity score, % at 18.7 µM; actives 0.13% (n = 350,000); AID 602363, 2012;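 active = replicate mean at a twofold rise or more, about +100% in these data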;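 also: firefly luciferase made from a UUG start codon reports start codon fidelity; reporter light over untreated wells divided by growth signal over untreated wells; some hits fall short of that in this replicate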
Arrestin-AP2 inh = inhibitors of human beta-arrestin and AP2 interaction; FITC-arrestin peptide / GST-AP2 beads, flow cytometry; AP2 beta2 appendage carries R879A mutation; 0.31% of 340,000 active; inhibition, % at 10 µM;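 active = inhibition above a set limit, near 3 SD of compounds lacking own fluorescence, cut at about 54% in these data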;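 note: plate controls were DMSO wells for no effect and 5 µM unlabelled arrestin peptide for full effect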
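System: GST-AP2 R879A glutathione beads; medium: PBS, Tween 20 0.05%, BSA 0.1%; reagent: fluorescein-tagged arrestin peptide at 50 nM final; schedule: pre-incubation 12 min, peptide binding 1 h, room temperature; detection: flow cytometry, FL1 (488/535 nm); read-out: inhibition as reduced fluorescein signal on beads, percent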
Pemphigus Ab inh = human desmoglein-3 autoantibody binding inhibition; DSG3-coupled beads, scFv-anti-DSG3-GFP binding, flow cytometry; stronger effect = lower value; binding (percent of control), % at 10 µM; 0.48% of 310,000 active; AID 588358;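 active = binding more than 3 SD below its plate's average and above zero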;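 note: hits lower antibody fragment binding to DSG3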
Rce1 inhib = blocks yeast Ras-converting enzyme | 0.27% of 290,000 active | Q03530 | yeast membranes, quenched prenylated peptide cleavage fluorescence | calls only;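 active = fall in fluorescence gain of 50% or more versus controls, with final raw signal at or below 3038400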;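 note: plate controls were neutral control wells for no effect and wells lacking membranes for full effect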
Tb MetRS inh = blocks T. brucei methionyl-tRNA synthetase activity; purified T. brucei MetRS, ATP depletion, Kinase-Glo luminescence; AID 624268; 0.4% of 360,000 active; inhibition, % at 11.9 µM;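 active = inhibition above a per-plate cutoff of the control wells' mean inhibition plus 3 SD, cut at about 5.5% in these data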;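 note: 0% = DMSO wells median and 100% = median of wells with control inhibitor compound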
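Material: T. brucei methionyl-tRNA synthetase, purified; reagent: substrates ATP, L-methionine and bulk Escherichia coli tRNA; dosing: 11.9 µM single point; timing: 15 min plus 2 h at 25 °C; detection: luminescence of leftover ATP; evaluation: % inhibition; control set: DMSO-only wells as low control; replicates: singlicate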
TbMetRS confirm = confirmation of Trypanosoma brucei MetRS inhibitors; shares compounds with Tb MetRS inh; T. brucei MetRS enzyme, luminescence (ATP depletion); inhibition, % at 11.9 µM; 93% of 1,400 active; AID 624412; in the data active = inhibition above about 7%
Jurkat tox = Jurkat T cell cytotoxicity for MetRS hits; Jurkat cells viability, ATP luminescence; AID 624413; 12% of 1,400 active; shares compounds with Tb MetRS inh; inhibition, % at 8.3 µM; in the data active = inhibition above about 15%;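 note: 0% = vehicle and 100% = reference inhibitor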
Tb MetRS inh FP = orthogonal test for Trypanosoma brucei MetRS inhibitors | AID 651607 | purified T. brucei MetRS, fluorescence polarization | shares compounds with Tb MetRS inh | 44% of 1,400 active | inhibition, % at 11.9 µM; in the data active = inhibition above about 17%;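 note: 0% = vehicle wells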
* hit, by the source's call; i = inactive; x = no result given. This is a sample that favours compounds with a hit; in the whole collection about 1.2% have one here.

Compound	UUG fidelity	Arrestin-AP2 inh	Pemphigus Ab inh	Rce1 inhib	Tb MetRS inh	TbMetRS confirm	Jurkat tox	Tb MetRS inh FP
O=[N+]([O-])c1ccc(NCCNc2ccc(Cl)nn2)cc1	-9	0	96	x	11*	18*	3	5
O=C1C2Sc3[nH]c(=O)sc3C(c3cc([N+](=O)[O-])ccc3O)C2C(=O)N1c1ccccc1 (stereo not given)	-12	0	94	i	16*	19*	0	12
Cc1ccc(N2C(=O)C3Sc4[nH]c(=O)sc4C(c4ccccc4)C3C2=O)cc1 (stereo not given)	-17	27	107	x	0	x	x	x
CC(=O)Cc1nsc(Nc2ccc(F)cc2)n1	-18	-10	105	i	-1	x	x	x
CC(=O)Cc1nsc(Nc2ccc(Cl)cc2)n1	x	19	x	i	10.0*	4	2	5
Cc1ccc2[nH]cc(S(=O)(=O)c3ccc(C)c(C)c3)c(=O)c2c1	x	12	92	i	6.8*	38*	4	9
COc1ccc2[nH]cc(S(=O)(=O)c3ccc(F)cc3)c(=O)c2c1	-10	-1	94	i	5	x	x	x
COc1cccc(NC(=O)N[C@H]2CC[C@@H](CC(=O)Nc3ccc(-c4ccccc4)cc3)O[C@@H]2CO)c1	-19	x	x	x	x	x	x	x
C[C@H]1CN([C@@H](C)CO)C(=O)c2cc(C#CC3CC3)cnc2O[C@H]1CN(C)C(=O)Nc1ccccc1	0	x	x	x	x	x	x	x
Cc1cccc(CSCCNC(=O)Nc2ccccc2)c1	x	5	104	i	15*	24*	-5	14
COCCNC(=O)C[C@@H]1CC[C@@H]2[C@H](COc3ccc(NC(=O)C4CCOCC4)cc3C(=O)N2C)O1	37	x	x	x	x	x	x	x
C[C@H](O)C#Cc1cnc2c(c1)C(=O)N([C@@H](C)CO)C[C@@H](C)[C@H](CN(C)Cc1cccc(F)c1)O2	3	x	x	x	x	x	x	x
COc1cccc(CNc2ncnc3cc(Cl)ccc23)c1	x	-1	95	i	12*	20*	14	5
COc1ccc(CNc2ncnc3cc(Cl)ccc23)cc1	x	-8	99	i	1	x	x	x
Cc1ccc(S(=O)(=O)N(C)C[C@@H]2OCCCC[C@@H](C)Oc3ccc(NC(=O)Nc4ccc5c(c4)OCO5)cc3C(=O)N([C@H](C)CO)C[C@@H]2C)cc1	-13	x	x	x	x	x	x	x

Entries listed so far printed as active in TbMetRS confirm:
| molecule | UUG fidelity | Arrestin-AP2 inh | Pemphigus Ab inh | Rce1 inhib | Tb MetRS inh | TbMetRS confirm | Tb MetRS inh FP |
| --- | --- | --- | --- | --- | --- | --- | --- |
| O=[N+]([O-])c1ccc(NCCNc2ccc(Cl)nn2)cc1 | -9 | 0 | 96 | x | 11* | 18* | 5 |
| O=C1C2Sc3[nH]c(=O)sc3C(c3cc([N+](=O)[O-])ccc3O)C2C(=O)N1c1ccccc1 (stereo not given) | -12 | 0 | 94 | i | 16* | 19* | 12 |
| Cc1ccc2[nH]cc(S(=O)(=O)c3ccc(C)c(C)c3)c(=O)c2c1 | x | 12 | 92 | i | 6.8* | 38* | 9 |
| Cc1cccc(CSCCNC(=O)Nc2ccccc2)c1 | x | 5 | 104 | i | 15* | 24* | 14 |
| COc1cccc(CNc2ncnc3cc(Cl)ccc23)c1 | x | -1 | 95 | i | 12* | 20* | 5 |

Further records follow.
Compound	UUG fidelity	Arrestin-AP2 inh	Pemphigus Ab inh	Rce1 inhib	Tb MetRS inh	TbMetRS confirm	Jurkat tox	Tb MetRS inh FP
Cc1cc(Cl)cc(C)c1OCCCCCn1ccnc1	-23	-5	110	i	7.8*	19*	7	10
CC/C(=N/O)C(=O)c1ccc(Br)cc1	x	0	85	x	6.2*	19*	-3	11
C[C@H]1CN([C@@H](C)CO)C(=O)c2cc(-c3ccncc3)cnc2O[C@@H]1CN(C)C(=O)CN1CCOCC1	-6	x	x	x	x	x	x	x
O=c1c(Cc2ccc(Cl)cc2Cl)c(O)ccn1Cc1ccncc1	x	-1	102	i	27*	39*	-2	27*
O=c1c(C/C=C/c2ccccc2)c(O)ccn1Cc1ccc(Cl)cc1Cl	x	14	101	i	5	x	x	x
COc1cc(/C=C(/C#N)c2ccccc2)ccc1Oc1ccc([N+](=O)[O-])cn1	-15	3	103	i	-1	x	x	x
COc1cc(/C=C(\C#N)c2nc3ccccc3[nH]2)ccc1Oc1ccc([N+](=O)[O-])cn1	-18	4	97	i	21*	63*	24*	37*
CO[C@@H]1CN(C)C(=O)c2cc(NS(=O)(=O)c3cn(C)cn3)ccc2OC[C@H](C)N(Cc2cccc(F)c2)C[C@@H]1C	-8	x	x	x	x	x	x	x
CCOC(=O)C1=C(CC)Nc2ccccc2N=C1NC(=O)Nc1ccc(Cl)c(Cl)c1	-6	-4	81	i	37*	97*	17*	117*
O=C(OCC(=O)c1c[nH]c2ccccc12)c1ccc(OC(F)F)cc1	-17	x	113	x	12*	31*	4	29*
Brc1cccc(CNc2nc3ccccc3n2CCN2CCCCC2)c1	x	0	x	i	4	x	x	x
Cn1c(NCc2cccc(Br)c2)nc2ccccc21	-6	18	x	i	40*	53*	8	29*
N=c1sccn1CC(=O)NCCc1ccc(Cl)cc1Cl	-25	1	105	x	16*	42*	-5	10
CS(=O)(=O)N1CCN(c2ccccc2NC(=O)Nc2cccc(Cl)c2)CC1	-4	18	100	i	8.4*	24*	-4	74*
CS(=O)(=O)N1CCN(c2ccccc2NC(=O)c2cc(Br)ccc2Cl)CC1	x	-12	98	x	0	x	x	x

Carrying on:
Values in the order – UUG fidelity	Arrestin-AP2 inh	Pemphigus Ab inh	Rce1 inhib	Tb MetRS inh	TbMetRS confirm	Jurkat tox	Tb MetRS inh FP
> O=C(N/N=C/c1cccn1-c1ccc([N+](=O)[O-])cc1)C(O)c1ccccc1 (stereo not given)
 : -13	-3	99	i	2	x	x	x
> O=C(Cc1ccccc1)N/N=C/c1cccn1-c1ccc([N+](=O)[O-])cc1
 : x	-1	x	i	13*	34*	-2	17
> S=c1[nH]nc(CCc2nc3ccccc3[nH]2)n1-c1cccc(Cl)c1
 : x	-8	101	i	7.7*	14*	-7	1
> O=C(CSCc1nc2ccccc2[nH]1)N1CCN(c2cccc(Cl)c2)CC1
 : -19	31	105	i	13*	26*	3	11
> O=C(CSCc1nc2ccccc2[nH]1)N1CCN(c2ccc(F)cc2)CC1
 : -17	3	92	i	2	x	x	x
> C[C@@H]1CN([C@@H](C)CO)S(=O)(=O)c2ccc(C#CC3CCCC3)cc2O[C@H]1CN(C)C
 : 55	x	x	x	x	x	x	x
> O=C(N/N=C/c1ccc[nH]1)c1ccc(O)cc1
 : x	15	104	i	1	x	x	x
> O=C(CNC(=O)c1ccc(Br)cc1)N/N=C/c1ccc[nH]1
 : x	4	68	i	23*	47*	10	22*
> CCC(=O)N[C@@H]1CC[C@H](CCn2cc(CN(C)C)nn2)O[C@@H]1CO
 : -7	x	x	x	x	x	x	x
> Cc1[nH]c2ccc(Br)cc2c(=O)c1CN1CCCCC1
 : -4	-6	102	i	34*	55*	-7	27*
> O=C(c1ccncc1)c1ccc(N2CCN(C3CC(=O)N(Cc4cccs4)C3=O)CC2)cc1 (stereo not given)
 : -20	-7	94	i	6.6*	14*	11	6
> OC1(c2cccc(C(F)(F)F)c2)CCN(c2ncnc3c2[nH]c2ccc(F)cc23)CC1
 : 14	22	104	x	12*	24*	34*	13
> Clc1ccccc1-c1ccc2ncnc(NCc3ccc4c(c3)OCO4)c2c1
 : -1	0	107	x	26*	32*	-2	22*
> Clc1ccccc1-c1ccc2ncnc(NCc3cccnc3)c2c1
 : 3	0	97	x	12*	44*	5	33*
> NCC[C@@H]1CC[C@@H](NC(=O)Nc2ccc(F)cc2)[C@@H](CO)O1
 : 2	x	x	x	x	x	x	x

Compound activity deposited in PubChem BioAssay by several laboratories.
